{"source": "PubChem BioAssay AID2303", "about": "(GlaxoSmithKline (GSK), 2010)", "note": "Only a part is listed here, and it is no random draw. Activity calls are given as the source filed them.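 Rule for the calls: active = inhibition above 50%; inactive = the rest.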", "data": [{"assay": "human hepatoma cell viability loss – ATP luminescence, cytotoxicity control for P. falciparum antimalarial project, primary screen (AID 2303);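 note: 0% = DMSO wells and 100% = digitonin-killed cells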", "conditions": "HepG2 viability, 24-48 h, at 10 µM, stronger effect = higher value", "values": [{"compound": "COc1cc(C(=O)NC(SC2=NCCS2)C(Cl)(Cl)Cl)cc(OC)c1OC", "note": "(stereo unspecified)", "inhibition": "inactive: 4%"}]}]}
